PubChem BioAssay (NCI)
Several values for one entry are separate records, joined by “and”; a condition that tells them apart may be missing. Identical values can stand only once. Only a part is listed here, and it is no random draw. Activity calls are given as the source filed them. Rule as the data show it: active = growth inhibition above about 70%; inactive = the rest.

Experiments:
[1] = NCI Yeast Anticancer Drug Screen. Data for the rad50 strain (AID 155);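 also: 0% = growth of vehicle-only cultures of the same strain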; settings: S. cerevisiae rad50 strain growth inhibition; at 50.0 µM; hits give high values
[2] = NCI Yeast Anticancer Drug Screen. Data for the mec2-1 strain (AID 157); settings: S. cerevisiae mec2-1 strain, at 50.0 µM, hits give high values
[3] = NCI Yeast Anticancer Drug Screen. Data for the sgs1 mgt1 strain (AID 161);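 also: 0% = growth of cultures given vehicle only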; settings: S. cerevisiae sgs1 mgt1 strain, at 50.0 µM, hits give high values
[4] = NCI Yeast Anticancer Drug Screen. Data for the cln2 rad14 strain (AID 165);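 also: 0% = growth equal to vehicle treated cultures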; settings: S. cerevisiae cln2 rad14 strain, at 50.0 µM, hits give high values
[5] = NCI Yeast Anticancer Drug Screen. Data for the bub3 strain (AID 167); settings: S. cerevisiae bub3 mutant strain, at 50.0 µM, hits give high values
[6] = NCI Yeast Anticancer Drug Screen. Data for the mlh1 rad18 strain (AID 175); settings: S. cerevisiae mlh1 rad18 strain growth inhibition; at 50.0 µM; hits give high values

Measured: growth inhibition

CCOC(=O)NNC(=S)NP(=O)(NC(=S)NNC(=O)OCC)NC(=S)NNC(=O)OCC
inactive: [1] 23.4% | [2] 11.3% | [3] -4.45% | [4] -1.75% | [5] 1.15% | [6] 2.8%

ClCCN1CC2CCCCC2C1 (centres undefined)
inactive: [1] -3.85% | [2] -17.1% | [3] -2.95% | [4] -14.2% | [5] 13.8% | [6] 15.4%

Cc1cc(N(CCCl)CCCl)ccc1C=NCCO
inactive: [1] 0.6% | [2] -4.65% | [3] 6.9% | [4] 1.85% | [5] 10.8% | [6] 26.8%

C=C1N2CCC(CC2)C1(OC(=O)CC)c1ccccc1 (centres undefined)
inactive: [1] -3.6% | [2] 4.4% | [3] -5.55% | [4] -5.15% | [5] -5% | [6] -5.4%

CCOP1(=O)N=C(NC#N)N(C)C1(C)C (centres undefined)
inactive: [1] -44.6% and -14.4% | [2] -63.8% and -0.25% | [3] -25.1% and -20.4% | [4] -10.9% and 16.1% | [5] 6.2% and 30.9% | [6] -29.7% and -28.9%

BrCCN(CCBr)c1ccc2ccccc2c1
active: [6] 78.3%
inactive: [1] 40.9% | [2] 11.4% | [3] 44.1% | [4] 42.8% | [5] 6.15%

O=C1NC(=O)C2(CC3CCCC(C2)N3CCCl)N1 (centres undefined)
inactive: [1] -17.7% | [2] -22% | [3] -18.9% | [4] 7.55% | [5] -23.6% | [6] -16.1%

CC1=CC2O[C@@H]3C[C@H]4OC(=O)CCCCC(C(C)O)OCC(O)C5(C)OC5C(=O)OCC2(C[C@H]1O)[C@]4(C)[C@@]31CO1 (some centres undefined)
inactive: [1] 38% | [2] 37.8% | [3] 8.95% | [4] 30.1% | [5] 25.5% | [6] 0.15%

CC1(C)NC(C)(C)C(Br)C(=O)C1Br (centres undefined)
inactive: [1] -14.4% | [2] -11.2% | [3] 13.2% | [4] 4.65% | [5] -1.8% | [6] 2.7%

NS(=O)(=O)c1ccc(NC2=NCC(CI)S2)cc1 (centres undefined)
inactive: [1] 2.45% | [2] -0.3% | [3] -9.55% | [4] 0% | [5] -11.4% | [6] -12.8%

Fc1ccc(N(CCCl)CCCl)cc1
inactive: [1] 0.95% | [2] -16.6% | [3] -31.8% | [4] -31.6% | [5] -24.8% | [6] -51.9%

CCCCCCCCCCCCCC(=O)OCC(COP(=O)(Oc1ccccc1)N(CCCl)CCCl)OC(=O)CCCCCCCCCCCCC (centres undefined)
inactive: [1] 6.25% | [2] -3.1% | [3] -9% | [4] -22.6% | [5] 1.3% | [6] -5.3%

[O-][n+]1nccnc1N1CC1
inactive: [1] 4.05% | [2] 9.75% | [3] 1.95% | [4] 4.15% | [5] -18.4% | [6] -2.8%

CCc1ccc(S(=O)(=O)N(CCCl)CCCl)cc1
inactive: [1] -15.4% | [2] -9.75% | [3] 0.75% | [4] -38.5% | [5] 49.3% | [6] 1.5%

O=[N+]([O-])c1ccc(N/N=C\CCCCCC/C=N/Nc2ccc([N+](=O)[O-])cc2[N+](=O)[O-])c([N+](=O)[O-])c1
inactive: [1] 17.1% | [2] -1.7% | [3] -11.4% | [4] 9.85% | [5] -4% | [6] 7%

C(Cc1nn[nH]n1)c1nn[nH]n1
inactive: [1] -5.9% | [2] -16% | [3] -24.1% | [4] -77.2% | [5] -31.6% | [6] -20.1%

CC(Cl)C[N+](C)(Cc1ccccc1[N+](=O)[O-])CC(C)Cl (centres undefined)
inactive: [1] -33.4% | [2] -6.9% | [3] -12.3% | [4] -8.95% | [5] 10.8% | [6] -19.2%

COc1ccc(N(CCCl)CCCl)cc1OC
inactive: [1] 17.9% | [2] 8.6% | [3] -20.9% | [4] -4% | [5] 2.7% | [6] -55.2%

N#C/C(=C\c1ccc(N(CCCl)CCCl)cc1)C(N)=O
inactive: [1] -28.1% | [2] -3.65% | [3] -1.75% | [4] -6.45% | [5] 15.7% | [6] -19.1%

CC(C)(C)[Si](C)(C)OC(=O)N(CCCl)CCCl
inactive: [1] 9.35% | [2] 7.55% | [3] 13.2% | [4] 9.65% | [5] -31.5% | [6] 8.55%

CCOP(=S)(N=C(N)N)OCC
inactive: [1] -8.9% | [2] -6.5% | [3] -0.9% | [4] -3.25% | [5] 0.6% | [6] -2.65%

CCOP(=O)(Nc1ccccc1)OCC
inactive: [1] 9.9% | [2] 12.1% | [3] -4.2% | [4] -13.2% | [5] -5.35% | [6] -2.05%

O=[N+]([O-])c1cc(Cl)c(O)c([N+](=O)[O-])c1
inactive: [1] 12.8% and 34.6% | [2] 12.2% and 14.2% | [3] 6.8% and 27.4% | [4] 6.15% and 22.2% | [5] -5.6% and 11.3% | [6] 36.8% and 32.6%

C=NNc1ccc([N+](=O)[O-])cc1[N+](=O)[O-]
inactive: [1] 18.4% | [2] 17.2% | [3] 17.6% | [4] 15.2% | [5] -2.65% | [6] 16.6%

O=P(OCC(O)CO)(Oc1ccccc1)N(CCCl)CCCl (centres undefined)
inactive: [1] 11.5% | [2] 8.9% | [3] -4.05% | [4] -35.5% | [5] -0.95% | [6] 4.9%

CCOP(=O)(NC1CCCCC1)OCC
inactive: [1] -10.8% | [2] -34.2% | [3] 9.3% | [4] 1.85% | [5] -3% | [6] 15.8%

Cc1cccc(N(CCCl)CCCl)c1
inactive: [1] 39.5% | [2] 21.9% | [3] 21.4% | [4] 11.2% | [5] 11.1% | [6] 19.4%

ClP(c1ccccc1)c1ccccc1
inactive: [1] 19.8% | [2] -10.9% | [3] -6.1% | [4] 14.6% | [5] -13.8% | [6] 29%

C[Si](C)(C)CCOC(=O)N(CCCl)CCCl
inactive: [1] -17.8% | [2] -78.2% | [3] -24.1% | [4] -20.1% | [5] -43% | [6] -31.6%

CCCNCCN(CCC)C(=N)C(=N)N(CCC)CCNCCC
inactive: [1] 14.2% | [2] 7.8% | [3] 39.7% | [4] -3.85% | [5] 0.7% | [6] 36.1%

CC1CC[P+](c2ccccc2)(c2ccccc2)Cc2ccccc21 (centres undefined)
inactive: [2] -2.95% | [3] 38% | [4] -3.65% | [5] 30.2% | [6] 21.9%
active: [1] 72%

O=C(c1ccccc1)C1CCCN2CCCCC12 (centres undefined)
inactive: [1] 19.8% | [2] 3.85% | [3] 18.8% | [4] 15.9% | [5] -2.55% | [6] 8%

N=C(N)SCCCl
inactive: [1] 5.15% | [2] 3.8% | [3] 16.1% | [4] -13.3% | [5] -1.85% | [6] 32.8%

CCOP1(=O)N=C(NC2=NC(C(F)(F)F)(C(F)(F)F)N=C(C(F)(F)F)O2)N(C)C1(C)C (centres undefined)
inactive: [1] 9.2% | [2] 12.4% | [3] -13.8% | [4] 19.4% | [5] -4.2% | [6] -0.45%

NC1(C(=O)O)Cc2ccc(N(CCCl)CCCl)cc2C1 (centres undefined)
inactive: [1] 0.35% | [2] 31.9% | [3] -4.6% | [4] 4.95% | [5] 7.35% | [6] 46.9%

Nc1nc(N)c(NCCCc2ccc(NC(=O)c3cccc(S(=O)(=O)F)c3)cc2)c(-c2ccccc2)n1
inactive: [1] 14.9% | [2] 23.4% | [3] 57.3% | [4] -4.9% | [5] -12.7% | [6] 54.5%

NC(=O)Nc1ccc(N(CCCl)CCCl)cc1
inactive: [1] 9.45% | [2] -2.95% | [3] -20.4% | [4] -12.6% | [5] -26.4% | [6] -13.2%

O=C(CCC(=O)OCCNc1ccc([N+](=O)[O-])cc1[N+](=O)[O-])OCCNc1ccc([N+](=O)[O-])cc1[N+](=O)[O-]
inactive: [1] -4.7% | [2] -7.45% | [3] -19.4% | [4] 11.2% | [5] -4.6% | [6] -12.9%

CCOC(=O)C[n+]1ccccc1/C=C\c1ccccc1
inactive: [1] -11.3% | [2] -2.6% | [3] -3.45% | [4] -29.9% | [5] -14.8% | [6] -3.45%
